{"sequences": {"note": "Protein sequences, listed by entry. Tags and fused reporters are not part of them.", "UniProt P08238, whole entry, looked up": "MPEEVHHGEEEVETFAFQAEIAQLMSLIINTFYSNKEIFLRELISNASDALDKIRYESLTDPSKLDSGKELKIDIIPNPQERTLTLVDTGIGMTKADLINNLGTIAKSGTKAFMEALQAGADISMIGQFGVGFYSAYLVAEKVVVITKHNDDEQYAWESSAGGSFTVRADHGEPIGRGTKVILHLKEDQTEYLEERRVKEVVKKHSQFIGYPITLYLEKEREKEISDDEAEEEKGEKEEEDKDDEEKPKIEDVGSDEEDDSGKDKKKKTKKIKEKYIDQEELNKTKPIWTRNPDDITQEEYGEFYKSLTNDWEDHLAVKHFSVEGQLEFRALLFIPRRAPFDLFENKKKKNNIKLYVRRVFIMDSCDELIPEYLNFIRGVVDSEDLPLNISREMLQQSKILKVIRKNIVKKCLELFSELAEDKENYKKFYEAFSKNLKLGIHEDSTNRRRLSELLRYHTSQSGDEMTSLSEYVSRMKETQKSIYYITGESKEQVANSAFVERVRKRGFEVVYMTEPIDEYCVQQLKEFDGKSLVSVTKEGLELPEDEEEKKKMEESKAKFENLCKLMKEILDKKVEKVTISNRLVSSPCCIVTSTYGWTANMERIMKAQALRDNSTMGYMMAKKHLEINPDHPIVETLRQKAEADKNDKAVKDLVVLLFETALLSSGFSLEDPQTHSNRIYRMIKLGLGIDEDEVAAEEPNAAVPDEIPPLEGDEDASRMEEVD"}, "source": "ChEMBL document CHEMBL4138078", "about": "“Structure-based virtual screening and optimization of modulators targeting Hsp90-Cdc37 interaction” (Eur J Med Chem, 2017)", "key": {"Heat shock protein HSP90 [1]": {"biological_target": "T1, Heat shock protein HSP90 (Homo sapiens, UniProt P07900+P08238)", "test": "Inhibition of N-terminal GST-tagged HSP90 ATPase activity (unknown origin) expressed in Escherichia coli at 100 uM after 1 hr in presence of ATP by spectrophotometric assay relative to control", "method_in_brief": "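ADP Hunter Plus ADP-detection kit. Compound at 100 μM final in 15 mM HEPES, 20 mM NaCl, 1 mM EDTA, 10 mM MgCl2, 0.02% Tween20, pH 7.4. Mixed in equal volumes with Hsp90 (5 μM) and ATP (100 μM), 1 h at 37 °C. Detection reagents A and B added, 30 min at room temperature; ex 540/em 620 nm. Protein-free background; no-ligand wells set as 100% activity.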"}, "Heat shock protein HSP90 [2]": {"biological_target": "T1, Heat shock protein HSP90", "test": "Inhibition of GA-FITC binding to N-terminal GST-tagged HSP90 (unknown origin) expressed in Escherichia coli at 100 uM after 30 mins fluorescence polarization assay relative to control", "method_in_brief": "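FP competition at 100 μM compound. Mixture: 100 nM Hsp90 and 10 nM FITC-geldanamycin probe in 100 mM Tris pH 7.4, 20 mM KCl, 6 mM MgCl2, 5 mg/ml BSA. Incubated 30 min at room temperature in the dark; ex 485/em 535 nm. % inhibition = 1 − (Pobs − Pmin)/(Pmax − Pmin); Pmax is protein plus probe, Pmin is free probe.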"}}, "note": "The source made the active and inactive calls. No cut-off for these calls is given here."}
{"molecule": "COc1ccc(CCNc2cc(N3CCN(CCO)CC3)ccc2[N+](=O)[O-])cc1OC", "values": [{"measurement": "inhibition", "setting": "Heat shock protein HSP90 [1]", "result": "< 10", "unit": "%"}, {"measurement": "inhibition", "setting": "Heat shock protein HSP90 [2]", "result": "inactive"}]}
{"molecule": "O[C@H](COc1ccc(OC[C@H](O)CN2CCN(c3cccc(Cl)c3)CC2)cc1)CN1CCN(c2cccc(Cl)c2)CC1", "values": [{"measurement": "inhibition", "setting": "Heat shock protein HSP90 [1]", "result": "< 10", "unit": "%"}, {"measurement": "inhibition", "setting": "Heat shock protein HSP90 [2]", "result": "inactive"}]}
